Literature values in patent US20140050720A1, “ULTRALONG COMPLEMENTARITY DETERMINING REGIONS AND USES THEREOF” (THE SCRIPPS RESEARCH INSTITUTE, priority 2012, published 2014).

System: B-cell non-Hodgkin's Lymphoma (NHL)
Conditions: cited from earlier work

B1: ibritumomab tiuxetan (conjugate, chains of the INN, looked up)
heavy: QAYLQQSGAELVRPGASVKMSCKASGYTFTSYNMHWVKQTPRQGLEWIGAIYPGNGDTSYNQKFKGKATLTVDKSSSTAYMQLSSLTSEDSAVYFCARVVYYSNSYWYFDVWGTGTTVTVSAPSVYPLAPVCGDTTGSSVTLGCLVKGYFPEPVTLTWNSGSLSSGVHTFPAVLQSDLYTLSSSVTVTSSTWPSQSITCNVAHPASSTKVDKKIEPRGPTIKPCPPCKCPAPNLLGGPSVFIFPPKIKDVLMISLSPIVTCVVVDVSEDDPDVQISWFVNNVEVHTAQTQTHREDYNSTLRVVSALPIQHQDWMSGKEFKCKVNNKDLPAPIERTISKPKGSVRAPQVYVLPPPEEEMTKKQVTLTCMVTDFMPEDIYVEWTNNGKTELNYKNTEPVLDSDGSYFMYSKLRVEKKNWVERNSYSCSVVHEGLHNHHTTKSFSR
light: QIVLSQSPAILSASPGEKVTMTCRASSSVSYMHWYQQKPGSSPKPWIYAPSNLASGVPARFSGSGSGTSYSLTISRVEAEDAATYYCQQWSFNPPTFGAGTKLELKRADAAPTVFIFPPSDEQLKSGTASVVCLLNNFYPREAKVQWKVDNALQSGNSQESVTEQDSKDSTYSLSSTLTLSKADYEKHKVYACEVTHQGLSSPVTKSFN
modifications: tiuxetan chelator radioisotope conjugate
notes: antibody-radioisotope conjugate of a murine IgG1 kappa anti-CD20 monoclonal antibody
- activity against B-cell non-Hodgkin's Lymphoma (NHL) (human, in vivo): has activity
- cytopenias on administration (patients): severe and prolonged cytopenias in most patients
